Data reported in US9026203B2, “Photosensitizing compositions” (PCI Biotech AS, priority 2009, dated 2015).

Test: Solubility of salts in water (water added in 0.2 ml portions)
Assay type: physicochemical

Minimum solubility in water: 34.9 mg/mL
Substance: Meso-Tetraphenyl Chlorin Disulphonate bis(monoethanolamine) [Example 7]
